The nature of the data set: Serum pharmacokinetics after oral administration in C57BL/6J mice. Format: in vivo. The settings on record: AUC0−t hybrid formulation / AUC0−t native apigenin. How it is done: For the detection of the conjugate, the EVOQ Elite ER TQ (Bruker) mass spectrometer was operated in negative ionization electrospray mode (ESI) under multiple reaction monitoring (MRM). Using MRM builder, a feature of MS workstation Bruker software, the optimal MRM transitions for monitoring 4′-DHA-apigenin were m/z 579.3 → 267.9 and 579.3 → 403. Optimum ESI conditions were determined as follows: spray voltage, 4500 V; heated probe gas flow, 50 units; heated probe temperature 350℃; cone gas flow, 20 units; cone temperature, 200 °C; nebulizer gas flow, 40 units. Total control of LC and MS, as well as data acquisition, were performed with MSWS software, Version 8.2.1 (Bruker). For the pharmacokinetic studies, a Xevo-G2-XS-QtoF mass spectrometer, coupled to a Waters UPLC I-Class Binary Solvent Manager (Waters Corp., Milford, MA, USA) was used. The mobile phases were composed of water (LC-MS grade) with formic acid 0.1% (A), and acetonitrile (LC-MS grade) with formic acid 0.1% (B). […]
The Phoenix^TM (www.certara.com)®. software was used for data analysis using non-compartmental PK analysis (NCA). […] To calculate the PK parameters and their standard errors (SE), the mean concentration curve is calculated and used in conjunction with the available subject information. […]

SMILES strings stand for the structures.

Regarding `CC/C=C\C/C=C\C/C=C\C/C=C\C/C=C\C/C=C\CCC(=O)Oc1ccc(-c2cc(=O)c3c(O)cc(O)cc3o2)cc1` [4′-DHA-apigenin hybrid, 4′-DHA-apigenin], the Relative bioavailability is given as 262%.

Values taken from PMC10005222, “Development of a Novel Apigenin Dosage form as a Substitute for the Modern Triple Antithrombotic Regimen” (Molecules, 2023).
